Assay results taken from US5270302A, “Derivatives of tetrapeptides as CCK agonists” (priority 1991, dated 1993).

Chains of the proteins cited; added tags and fusions are not shown.
UniProt Q63931, whole entry: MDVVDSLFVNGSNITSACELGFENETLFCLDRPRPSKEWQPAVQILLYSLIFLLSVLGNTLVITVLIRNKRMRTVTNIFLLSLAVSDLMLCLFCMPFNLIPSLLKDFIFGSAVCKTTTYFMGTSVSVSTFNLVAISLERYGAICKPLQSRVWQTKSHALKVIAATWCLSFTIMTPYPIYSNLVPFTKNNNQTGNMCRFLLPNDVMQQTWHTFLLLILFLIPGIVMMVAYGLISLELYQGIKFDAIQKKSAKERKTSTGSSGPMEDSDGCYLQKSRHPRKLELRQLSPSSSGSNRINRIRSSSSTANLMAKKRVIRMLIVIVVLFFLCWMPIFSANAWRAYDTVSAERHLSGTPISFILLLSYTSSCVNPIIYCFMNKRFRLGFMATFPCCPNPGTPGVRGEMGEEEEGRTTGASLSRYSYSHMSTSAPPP

Legend:
Type-B CCK receptor = molecular target: T1, Type-B CCK receptor (Cavia porcellus, UniProt H0VZC5); assay: Radioligand binding of [125I]BH-CCK-8 in guinea pig cerebral cortical membrane preparations; details: IC50 (nM) 125I-BH-CCK-8 Type-B receptor, guinea pig cortical membranes, 30° C., 150 minutes
T1 construct: Cortical and pancreatic membranes were prepared as described; from tissue; host or cells: guinea pig cerebral cortex membranes
T1 sequence (H0VZC5 1-426): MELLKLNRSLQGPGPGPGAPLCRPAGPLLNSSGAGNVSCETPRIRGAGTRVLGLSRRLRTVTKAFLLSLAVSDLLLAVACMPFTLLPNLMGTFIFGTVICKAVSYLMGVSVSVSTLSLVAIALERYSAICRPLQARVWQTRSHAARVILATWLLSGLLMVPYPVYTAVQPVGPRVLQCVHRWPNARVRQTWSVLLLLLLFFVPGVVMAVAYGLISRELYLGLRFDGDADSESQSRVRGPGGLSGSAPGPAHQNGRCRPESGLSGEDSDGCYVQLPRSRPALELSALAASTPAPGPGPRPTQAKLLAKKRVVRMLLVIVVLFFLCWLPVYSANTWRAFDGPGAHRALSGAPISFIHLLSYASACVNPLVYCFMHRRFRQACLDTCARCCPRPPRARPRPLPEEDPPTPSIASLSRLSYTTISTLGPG
Source text: (§1) CCK-8 [Asp-Tyr(SO3 H)-Met-Gly-Trp-Met-Asp-PheNH2 ], bestatin and phosphoramidion were purchased from Peptide International (Louisville, Ky.). EGTA (ethylene glycol-bis-(β-aminoethyl) N,N,N',N'-tetraacetic acid), HEPES (4-(2-hydroxyethyl)-1-piperazine-enthanesulfonic acid) and BSA (bovine serum albumin) were purchased from Sigma Chemical Co. (St. Louis, Mo.). [^125 I]-Bolton-Hunteer (BH-CCK-8) (specific activity, 2200 Ci/mmol) was obtained from New England Nuclear (Boston, Mass.). Male guinea pigs, 250 to 325 g, were obtained from Scientific Small Animal Laboratory and Farm (Arlington Heights, Ill.). Collagenase, code CLSPA was purchased from Worthington (Frehold, N.J.).
(§2) Protocol For Radioligand Binding Experiments in Guinea Pig Cerebral Cortical and Pancreatic Membrane Preparations
Cortical and pancreatic membranes were prepared as described (Lin and Miller; J. Pharmacol. Exp. Ther. 1985, 232:775-780,). In brief, cortex and pancreas were removed and rinsed with ice-cold saline. Visible fat and connective tissues were removed from the pancreas. […] The homogenates were entrifuged for 10 minutes at 1075×g and pellets were discarded. The supernatants were saved and centrifuged at 38,730×g for 20 minutes. The resultant pellets were rehomogenized in 25 mL of 50 mM Tris-HCl buffer with a Teflon-glass homogenizer, 5 up and down strokes. The homogenates were centrifuged again at 38,730×g for 20 minutes. Pellets werre then resuspended in 20 mM HEPES, containing 1 mM EGTA, 118 mM NaCl, 4.7 mM KCl, 5 mM MgCl2, 100 μM bestatin, 3 μM phosphoramidon, pH 7.4 at 22° C. with a Teflon-glass homogenizer, 15 up and down strokes. Resuspension volume for the cortex was 15-18 mL per gram of original wet weight and 60 mL per gram for the pancreas.
[^125 I]Bolton-Hunter CCK-8 and test compounds were diluted with HEPES-EGTA-salt buffer (see above) containing 0.5% BSA. To 1 mL Skatron polystyrene tubes were added 25 μL of test compounds, 25 μL of [^125 I]BH-CCK-8 and 200 μL of membrane suspension. The final BSA concentration was 0.1%. […] IC50 s were determined from the Hill analysis.

Type-A CCK receptor = molecular target: T2, Type-A CCK receptor (Cavia porcellus, UniProt Q63931); assay: Radioligand binding of [125I]BH-CCK-8 in guinea pig pancreatic membrane preparations; details: IC50 (nM) 125I-BH-CCK-8 Type-A receptor, guinea pig pancreatic membranes, 37° C., 150 min
T2 construct: Cortical and pancreatic membranes were prepared as described; from tissue; host or cells: guinea pig pancreas membranes
Source text: as §1, §2
Cortical and pancreatic membranes were prepared as described (Lin and Miller; J. Pharmacol. Exp. Ther. 1985, 232:775-780,). In brief, cortex and pancreas were removed and rinsed with ice-cold saline. Visible fat and connective tissues were removed from the pancreas. […] The homogenates were entrifuged for 10 minutes at 1075×g and pellets were discarded. The supernatants were saved and centrifuged at 38,730×g for 20 minutes. […]
[^125 I]Bolton-Hunter CCK-8 and test compounds were diluted with HEPES-EGTA-salt buffer (see above) containing 0.5% BSA. […] IC50 s were determined from the Hill analysis.

Compound	IC50 (Type-B CCK receptor)	IC50 (Type-A CCK receptor)
Cc1ccccc1NC(=O)NCCCC[C@H](NC(=O)[C@H](Cc1c[nH]c2ccccc12)NC(=O)OC(C)(C)C)C(=O)N[C@@H](CC(=O)O)C(=O)N(C)[C@@H](Cc1ccccc1)C(N)=O [Example 33, t-BOC-Trp-Lys(ε-N-(2-methylphenyl)aminocarbonyl)-Asp-(NMe)PheNH2]	4300 nM	
Cc1ccccc1NC(=O)NCCCC[C@H](NC(=O)C(O)Cc1c[nH]c2ccccc12)C(=O)N[C@@H](CC(=O)O)C(=O)N[C@@H](Cc1ccccc1)C(N)=O (some centres unmarked) [Example 51, Indolelactoyl-Lys(ε-N-(2-methylphenyl)aminocarbonyl)-Asp-PheNH2]	2100 nM	28 nM
Cc1ccccc1NC(=O)NCCCC[C@H](NC(=O)C(Cc1c[nH]c2ccccc12)OC(=O)OCC(C)C)C(=O)N[C@@H](CC(=O)O)C(=O)N[C@@H](Cc1ccccc1)C(N)=O (some centres unmarked) [Example 50, (Isobutoxycarbonyl)indolelactoyl-Lys(ε-N-(2-methylphenyl)aminocarbonyl)-Asp-PheNH2]	5200 nM	15 nM
